{
  "sequences": {"note": "Chains of the proteins cited; added tags and fusions are not shown.", "UniProt O14842, whole entry": "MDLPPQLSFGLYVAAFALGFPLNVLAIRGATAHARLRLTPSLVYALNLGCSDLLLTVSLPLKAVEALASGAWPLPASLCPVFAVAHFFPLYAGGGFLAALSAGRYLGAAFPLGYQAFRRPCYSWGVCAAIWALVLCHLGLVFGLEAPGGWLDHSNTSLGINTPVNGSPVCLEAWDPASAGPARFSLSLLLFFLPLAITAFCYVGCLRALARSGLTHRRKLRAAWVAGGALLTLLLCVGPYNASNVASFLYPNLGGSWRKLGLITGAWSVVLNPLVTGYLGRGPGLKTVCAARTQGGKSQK"},
  "source": "patent US20250223281A1",
  "about": "“ANTIDIABETIC COMPOUNDS AND COMPOSITIONS” (REZUBIO PHARMACEUTICALS CO., LTD, priority 2022, published 2025)",
  "target": "GPR40 (Homo sapiens, UniProt O14842)",
  "test": "IP1 accumulation assay in HEK293 cells stably expressing GPR40",
  "procedure": "IP1 accumulation assay was used to evaluate the potency of compounds. HEK293 cells stably expressing GPR40 were cultured in 5% CO2 incubator (ThermoFisher) in maintenance media (Dulbecco's modified Eagle's medium with 4.5 g/L of glucose, 10% fetal bovine serum, 100 μg/mL Hygromycin, and Penicillin (100 U/mL)/Streptomycin (100 μg/mL)) till 100% confluency. Cells were harvested freshly, spun down at 300×g for 5 min, and resuspended in pre-warmed 1× stimulant buffer from Cisbio IP-One HTRF Detection kit (Cisbio). Cell density was adjusted to 2.0×10^6 cells/mL. DMSO was used as blank control and AMG-1638 (CAS #: 1142214-62-7) as positive control. Compounds were prepared at 10 mM in DMSO and 5 nL of 3× serially diluted compounds (10 concentrations) were added to each well of the 384-LDV assay plate (Corning) by using ECHO 550 (Labcyte). Five μL of cells in suspension were transferred into each well by using Multidrop Combi Reagent Dispenser (ThermoFisher). Assay plate was then sealed and incubated at 37° C. for 2 hours. IP-d2 reagent and anti-IP1 reagent were prepared following the manual (Cisbio). Five μL of IP1-d2 and then 5 μL of anti-IP1 antibody was added to each well sequentially. Assay plate was incubated at room temperature for 60 min and then read at 665 nm/615 nm on an Envision plate reader (PerkinElmer). The ratio of values obtained at 665 nm and 615 nm was used for calculation of IP1 accumulation: % Effect=(Ratiosample−Ratioblank)/(RatioAMG-1638−Ratioblank)×100. Dose curve was fitted and EC50 of each compound was calculated by using XLFit.",
  "data": [
    {"smiles": "COc1ccc(F)c(-c2ccc(COc3cccc([C@@H](CC(=O)O)C4CC4)c3)cc2CC(C)(C)Cn2cc(CCCCCCC(=O)NCCC[N+](C)(CC(=O)[O-])CC(=O)O)nn2)c1", "note": "(some centres unmarked)", "values": [
      {"measurement": "EC50", "setting": "IP1 accumulation, HEK293 cells stably expressing GPR40, 2 hours at 37° C., % effect relative to AMG-1638, table of Biological Example 1", "value": 631, "unit": "nM"}
    ]},
    {"smiles": "C[C@H](C(=O)O)[C@H](c1ccc2c(c1)O[C@@H](C1CCN(Cc3cc(-n4cc(CCCCCCCCC(=O)NCC[N+](C)(CCC(=O)NCCN)CCC(=O)NCCN)nn4)ccc3OC(F)(F)F)CC1)CC2)C1CC1", "values": [
      {"measurement": "EC50", "setting": "IP1 accumulation, HEK293 cells stably expressing GPR40, 2 hours at 37° C., % effect relative to AMG-1638, table of Biological Example 1, tested form: chloride, dihydrochloride (drawing: 2HCl)", "value": "> 10000", "unit": "nM"},
      {"measurement": "EC50", "setting": "Tables A-1a to A-7b (structure-property relationship), obtained by methods of Biological Example 1, tested form: chloride, dihydrochloride (drawing: 2HCl)", "value": "> 10000", "unit": "nM"}
    ]},
    {"smiles": "COc1ccc(C(=O)N(CC(C)(C)CCn2cc(COCCOCCOCCOCC(=O)NCCN(CCC(=O)NCCN)CCC(=O)NCCN)nn2)c2cccc(C)n2)c(N2CCC(COc3cc([C@@H](CC(=O)O)C4CC4)ccn3)CC2)c1", "values": [
      {"measurement": "EC50", "setting": "IP1 accumulation, HEK293 cells stably expressing GPR40, 2 hours at 37° C., % effect relative to AMG-1638, table of Biological Example 1, tested form: TFA", "value": 1360, "unit": "nM"},
      {"measurement": "EC50", "setting": "Table A-8 (additional examples), obtained by methods of Biological Example 1, tested form: TFA", "value": 1360, "unit": "nM"}
    ]}
  ]
}
